{"source": "ChEMBL document CHEMBL1150002", "about": "“Synthesis and biological activities of new heterocyclic aromatic retinoids” (Bioorg Med Chem Lett, 1997)", "system": "F9", "test": "Compound was tested for its ability to induce differentiation of F9 cells as estimated by plasminogen activator secretion (PA)", "assay_type": "functional, cell-based", "settings": "Mus musculus"}
{"smiles": "COc1ccc(C2=Cc3ccc(C(=O)O)cc3OC2)cc1C12C[C@H]3C[C@@H](C1)C[C@@H](C2)C3", "values": [{"measurement": "AC50", "result": 34, "unit": "nM"}]}
